Sequences of proteins named here, by UniProt entry; tags and fusion partners are left off. A change or cut given only in a name is not applied to a line headed by its entry.
UniProt P08684, whole entry: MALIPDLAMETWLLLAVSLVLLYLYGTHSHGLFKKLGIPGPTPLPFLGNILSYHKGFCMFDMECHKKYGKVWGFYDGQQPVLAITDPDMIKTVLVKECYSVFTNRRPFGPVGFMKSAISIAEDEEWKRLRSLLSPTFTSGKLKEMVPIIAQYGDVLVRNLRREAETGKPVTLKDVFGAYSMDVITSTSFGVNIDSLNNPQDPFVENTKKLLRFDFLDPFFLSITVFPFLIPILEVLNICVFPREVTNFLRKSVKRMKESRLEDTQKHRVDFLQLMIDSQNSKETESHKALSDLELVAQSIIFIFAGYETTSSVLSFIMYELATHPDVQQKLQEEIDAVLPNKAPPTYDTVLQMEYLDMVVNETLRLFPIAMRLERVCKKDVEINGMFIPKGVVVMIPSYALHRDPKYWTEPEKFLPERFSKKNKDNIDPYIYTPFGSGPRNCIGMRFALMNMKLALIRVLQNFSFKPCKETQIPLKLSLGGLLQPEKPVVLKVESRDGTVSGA
UniProt P33527: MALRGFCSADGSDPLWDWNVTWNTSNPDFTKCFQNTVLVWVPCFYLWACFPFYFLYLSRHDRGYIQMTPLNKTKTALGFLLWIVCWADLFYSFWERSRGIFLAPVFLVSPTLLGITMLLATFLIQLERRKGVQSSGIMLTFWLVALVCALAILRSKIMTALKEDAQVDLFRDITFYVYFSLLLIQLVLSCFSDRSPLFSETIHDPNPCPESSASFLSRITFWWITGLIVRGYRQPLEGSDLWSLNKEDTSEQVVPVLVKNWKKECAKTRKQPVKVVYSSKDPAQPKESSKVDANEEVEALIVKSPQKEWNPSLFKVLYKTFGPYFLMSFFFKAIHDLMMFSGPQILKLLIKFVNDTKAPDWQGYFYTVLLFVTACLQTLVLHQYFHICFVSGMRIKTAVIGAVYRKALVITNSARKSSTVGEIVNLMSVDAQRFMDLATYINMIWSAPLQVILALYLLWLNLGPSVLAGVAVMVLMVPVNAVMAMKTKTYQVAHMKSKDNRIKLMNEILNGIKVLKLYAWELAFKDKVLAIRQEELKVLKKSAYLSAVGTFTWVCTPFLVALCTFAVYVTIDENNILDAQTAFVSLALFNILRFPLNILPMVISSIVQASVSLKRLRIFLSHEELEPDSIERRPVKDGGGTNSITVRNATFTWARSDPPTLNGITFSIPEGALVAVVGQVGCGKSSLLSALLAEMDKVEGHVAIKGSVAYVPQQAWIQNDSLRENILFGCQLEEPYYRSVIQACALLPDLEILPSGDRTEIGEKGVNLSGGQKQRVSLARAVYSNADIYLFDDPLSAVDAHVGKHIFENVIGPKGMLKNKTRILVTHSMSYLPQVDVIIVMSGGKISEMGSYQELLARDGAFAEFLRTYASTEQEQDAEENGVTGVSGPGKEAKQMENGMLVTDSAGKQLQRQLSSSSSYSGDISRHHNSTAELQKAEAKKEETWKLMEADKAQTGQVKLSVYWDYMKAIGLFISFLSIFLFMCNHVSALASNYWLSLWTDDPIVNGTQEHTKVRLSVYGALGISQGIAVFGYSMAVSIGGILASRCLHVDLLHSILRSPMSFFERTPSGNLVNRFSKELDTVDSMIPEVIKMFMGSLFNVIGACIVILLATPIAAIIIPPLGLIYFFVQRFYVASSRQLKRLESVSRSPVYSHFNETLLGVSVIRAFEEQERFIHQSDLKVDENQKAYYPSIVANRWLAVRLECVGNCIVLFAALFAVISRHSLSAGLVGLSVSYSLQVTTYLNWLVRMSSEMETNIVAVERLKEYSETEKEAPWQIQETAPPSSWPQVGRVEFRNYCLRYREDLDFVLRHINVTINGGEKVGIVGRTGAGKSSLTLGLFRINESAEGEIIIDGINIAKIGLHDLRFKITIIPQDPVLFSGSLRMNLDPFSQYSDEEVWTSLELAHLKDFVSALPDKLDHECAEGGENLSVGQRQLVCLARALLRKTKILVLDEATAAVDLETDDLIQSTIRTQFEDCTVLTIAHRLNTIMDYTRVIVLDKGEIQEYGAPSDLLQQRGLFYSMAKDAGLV

According to ChEMBL document CHEMBL1149092, “Studies on pyrrolopyrimidines as selective inhibitors of multidrug-resistance-associated protein in multidrug resistance” (J Med Chem, 2004):

Tests used:
Cytochrome P450 3A4 = Cytochrome P450 3A4 (Homo sapiens, UniProt P08684); experiment: Inhibitory concentration to inhibit MRP1 in CYP 3A4 assay
How it was run: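 Human liver microsomes (0.1 mg/mL) were incubated at 37 °C with testosterone (110 μM) and modulator (0.1–100 μM). NADPH generating system started the reaction; methanol stopped it after 10 min. 6β-Hydroxytestosterone was measured by HPLC-UV at 300 nm. IC50 came from percent control activity versus concentration; mean of ≥3 experiments.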

[1] = biological target: Multidrug resistance-associated protein 1 (Homo sapiens, UniProt P33527); experiment: Inhibitory activity against human transporter MRP1 (Multidrug resistance associated protein 1) expressed in COR.L23/R cell line
How it was run: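 Tritiated daunomycin (0.3 μCi/mL) accumulation in COR.L23/R cells (MRP-expressing human NSCLC MDR subline), seeded 48 h before the assay. Compounds were serially diluted from 100 to 0.015 μM and incubated 2 h at 37 °C. Cells were washed and cell-associated radioactivity measured. 100% accumulation was set with 100 μM verapamil. IC50 is the mean of ≥3 experiments.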

IC50 (Cytochrome P450 3A4)	IC50 [1]	Structure (SMILES)
> 100000 nM	120 nM	CCNC(=O)c1c2n(c3c(N4CCN(CCc5ccc(F)c(F)c5)CC4)ncnc13)CCCC2
9730 nM	76 nM	O=C(Nc1cccnc1)c1c2n(c3c(N4CCN(CCc5ccc(F)c(F)c5)CC4)ncnc13)CCCC2
